Values quoted from earlier work in patent publication US7964349B2, “Method to determine responsiveness of cancer to epidermal growth factor receptor targeting treatments” (The General Hospital Corporation, priority 2004, dated 2011).

Test system: non-small cell lung cancer (NSCLC)
Conditions: published literature; cited from earlier work

In the case of `COc1cc2ncnc(Nc3ccc(F)c(Cl)c3)c2cc1OCCCN1CCOCC1` [Gefitinib], the “individuals with a somatic EGFR mutation responsive to gefitinib” value is listed as 11/11.
